Results from the supplement of paper PMC11003180.

Experiments:
Assay in all cases: drug sensitivity score (DSS) from 5-dose viability curve (DSS (area-based score, 0 = no response)); higher = more sensitive (stronger viability inhibition); extreme values may be limits of the assay
[1] = system: MDCK wild-type - doxycycline; conditions: doxycycline: none; 72 h
Procedure, shortened: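 Viability of parental MDCK cells cultured without doxycycline was measured by CellTiter-Glo luminescence and scaled per plate between vehicle and positive controls. The cells had been exposed for 72 h to an oncology library of 528 drugs at five doses (1-10,000 nM). Drug sensitivity scores were calculated from dose-response curve fits in the Breeze pipeline.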

[2] = system: MDCK wild-type + doxycycline; conditions: doxycycline: 10 ng/mL; 72 h
Procedure, shortened: (§1)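 Two MDCK lines, parental and doxycycline-inducible, received doxycycline at 10 ng/mL in the medium before being plated at 2000 cells/well onto a pre-spotted 384-well oncology library of 528 drugs at five doses (1-10,000 nM). Incubation lasted 72 h at 37 °C. Viability was read by CellTiter-Glo luminescence, scaled per plate between vehicle and positive controls, and converted to drug sensitivity scores through Breeze curve fitting.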

[3] = system: MDCK p60AmotL2-inducible + doxycycline (p60AmotL2 expressing); conditions: doxycycline: 10 ng/mL; 72 h
Procedure, shortened: as §1

Measured: drug sensitivity score

NCc1ccc(OCCCc2sc(-c3ccc4c(c3)/C(=N/Nc3nc5ccccc5s3)CCC4)nc2C(=O)O)cc1 [WEHI-539]
0: all assays above
